# Data from patent US11013690B2, “Esterification/saponification-based method for liposomal encapsulation of hydrophilic glucuronides” (priority 2016, dated 2021).
# Assay: Octanol-to-water partitioning assay
# Assay type: physicochemical
# Settings: 1-octanol / citric acid pH 5, room temperature
# Method: FIG. 4 illustrates the octanol to water distribution of glucuronides and glucuronide-mE. Glucuronides and glucuronide-mE were incubated overnight in immiscible aqueous and organic phases (citric acid pH 5 and 1-octanol) under gentle shaking at room temperature. Samples from each phase were analyzed to characterize the distribution of the compounds. n=3-5
# FIG. 5 illustrates the Log P of glucuronides and glucuronide-mE compounds in each phase of 1-octanol and citric acid pH 5 following the formula: log Poctanol/water=log ([solute]octanol/[solute]water). n=3-5. Error bars, SD
# 9-aminocamptothecin glucuronide (9AC-G), 5,6-dihydro-4H-benzo[de]quinoline-camptothecin-β-D-glucuronide (BQC-G) and 4-methylumbelliferyl-β-D-glucuronide (4MU-G) can be incubated in methanol in the presence of a strong acid (sulfuric acid) as a catalyzer (FIG. 2).
# Distribution of the different compounds were measured by dilution in a 1:1 volume of octanol and 100 mM citric acid buffer at pH 5 (FIG. 4). The solutions were gently stirred for 24 hours at room temperature, spun down at 2,500×g and glucuronides or glucuronide-mE in each phase was quantified by HPLC and the partition coefficients were calculated as log Poctanol/water=log ([solute]octanol/[solute]water) ([…]).
substance,measurement,value
"5,6-dihydro-4H-benzo[de]quinoline camptothecin glucuronide methylester [BQC-GmE]",partition versus corresponding glucuronide,increased partition into an organic phase
